Test results as given in publication PMC11738990.

Tested on: healthy subjects
Test: Phase I New Zealand safety
Settings: two phase I studies, healthy volunteers

For `CC(C)n1cnc(-c2ccc(F)cc2)c1-c1ncc(C(=O)Nc2ccc(N3CCN(C)CC3)cc2)[nH]1`, the safety and tolerability was “safe and well tolerated”.
